Laboratory results from patent US9919057B2, “Compounds comprising self-immolative group” (LegoChem Biosciences, Inc., priority 2014, dated 2018).
Read-outs that look alike come from different tables or passages of the source.

Tests used:
[1] = tested on: SK-Br3 (HER2 positive) breast cancer cell line; assay: Anti-proliferation assay of ADC (SRB); format: cell-based, human; details: 72 hours
Protocol: Anti-cell proliferation activities of antibodies, a drug, and ADC(s) illustrated in the following Table 2 on cancer cell lines were measured.
As the cancer cell lines, commercialized human breast cancer cell lines MCF-7 (HER2-negative or -normal) and SK-Br3 (HER2 positive), and a commercialized ovarian cancer cell lines SK-OV3 (HER2 positive) were used. As the drug, MMAF was used.
After each of the cancer cell lines was seeded in a 96-well plate at 10,000 cells/each well and cultured for 24 hours, the antibody and ADC were treated at a concentration of 0.01563˜2 μg/ml (2 times serial dilution), and the drug was treated at a concentration of 4˜500 nM (2 times serial dilution). After 72 hours, the numbers of living cells were quantified using a Sulforhodamine B (SRB) dye.

[2] = tested on: human breast carcinoma cell line BT-474; format: in vivo
Protocol: Efficacy of a drug depending on single-dose or multi-dose administration was evaluated using an orthotopic model.
A human breast carcinoma cell line BT-474 was purchased from Korea Cell Line Bank and cultured using RPMI 1640 (10% FBS, 1% penicillin/streptomycin) in an incubator (37° C., 5% CO2) in which a constant temperature and humidity was maintained. As experimental animals, Balb/c-nu female mice (6 weeks old) purchased from Japan SLC were used, and after acclimation period of 1 week, 17b-estradiol pellet (1.72 mg/pellet, Innovative Research of America, Sarasota, Fla.) was subcutaneously administered. After 6 days, BT474 cell (5×10^6 cells in 100 μL) was suitably mixed with 50% PBS/50% phenol red-free Matrigel (Becton Dickinson Bioscience) and injected into the second mammary fat pad, thereby making orthotopic models. A tumor size was measured twice per a week, and a volume was calculated by ½ [length (mm)]×[width (mm)]^2. The mice were grouped so as to have an average tumor volume of 100 mm^3 in each group after 3 weeks from cell injection, and then used in the experiment.
Animal groups were the same as those in the multi-dose administration model, a total of 4 BT474 orthotopic mice were used per group, the drugs were administered once at an initiation point in time of the experiment through the tail vein, and only observation was performed during an experiment period of 5 weeks without additional drug administration.

[3] = monkey, in vivo, iv, 3 mg/kg
In vivo rat PK test = assay: In vivo rat PK test; parameters: species or system female rats; details: iv single dose 3.0 mg/kg
[4] = In vivo mouse PK profile (total antibody, ELISA); parameters: species or system ICR male mice; details: iv single dose 2.5 mg/kg

Row | Substance | IC50 Breast Cancer Cell Line SK-Br3 [1] | Body Weight Change Day 4 ([2]; 5 mg/kg QW) | Body Weight Change Day 7 ([2]; 5 mg/kg QW) | Body Weight Change Day 10 ([2]; 5 mg/kg QW) | Body Weight Change Day 14 ([2]; 5 mg/kg QW) | Body Weight Change Day 21 ([2]; 5 mg/kg QW) | tumor regrowth observed from, after a single-dose administration ([2]; 5 mg/kg once) | tumor growth, single-dose administration ([2]; 5 mg/kg once, tail vein, experiment period of 5 weeks) | tumor growth, multi-dose administration ([2]; 5 mg/kg, once a week, total of 4 times, tail vein) | tumor growth (tumor volume) ([2]; 5 mg/kg, once a week, total of three times, tail vein) | V1 [3] | Alpha HL (In vivo rat PK test) | V1 (In vivo rat PK test) | C0 [4]
1 | Herceptin-G7-CVIM (HC): antibody: Herceptin with G7-CVIM motif at the heavy chain | 1.53 µg/mL | – | – | – | – | – | – | – | – | – | – | – | – | –
2 | Herceptin-G7-CVIM (LC): antibody: Herceptin with G7-CVIM motif at the light chain | 1.98 µg/mL | – | – | – | – | – | – | – | – | – | – | – | – | –
3 | Herceptin: trastuzumab (referred to as 'Herceptin'); Herceptin manufactured by Roche was purchased and used [reference compound] | – | 22.1 | 22.1 | 21.9 | 21.1 | 22.5 | 10 days | tumor regrowth phenomenon was observed | partially inhibited | partially inhibited | 0.03608 ± 0.00062 L/kg | 2.16 ± 0.50 days | 0.03672 ± 0.00108 L/kg | 39200 ng/mL
